Ab-14 heavy chain CDR variants: yeast mating affinities

The measurements come from Engelhart et al. 2022 (doi:10.1038/s41597-022-01779-4) through the FLAb antibody collection.

Binding partner: SARS-CoV-2 spike HR2 peptide, sequence PDVDLGDISGINAS.

The variants keep the light chain, the linker and the frameworks of Ab-14 (scFv order VH, a 15-residue (Gly4Ser)3 linker, VL).
VH: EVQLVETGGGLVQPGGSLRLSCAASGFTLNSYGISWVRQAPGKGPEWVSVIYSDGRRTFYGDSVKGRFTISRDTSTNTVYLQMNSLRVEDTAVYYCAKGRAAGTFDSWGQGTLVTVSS
VL: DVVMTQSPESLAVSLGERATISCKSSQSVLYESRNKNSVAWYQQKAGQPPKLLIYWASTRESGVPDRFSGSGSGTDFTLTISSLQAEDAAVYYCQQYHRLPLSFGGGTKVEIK

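The starting antibody came from a phage panning campaign against this peptide. AAYL49 was designed without a model: most single CDR substitutions and a random sample of double and triple ones. AlphaSeq pools MATa yeast showing the antibodies with MATalpha yeast showing the peptide. After mating in shaken culture at 30 °C for 16 h, diploids were selected and their barcode pairs sequenced. Scores were corrected for input abundance and mapped to Kd with protein pairs of known affinity run in the same pool. Mating was done three times.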

Variants are written as CDR1, CDR2 and CDR3 of the heavy chain (limits as in the source). Parent: GFTLNSYGIS, VIYSDGRRTFYGDSVK, GRAAGTFDS. Values are log10 of the apparent Kd in nM; lower means stronger binding. Replicates are averaged; those with no signal do not enter the mean. Where no diploid with the target was found in any replicate, the entry reads "no signal": below detection, most likely a poor binder, though not proof of it. Order: sorted from the lowest average up, undetected variants last.

| CDR-H1 | CDR-H2 | CDR-H3 | mean, log10 nM | replicates with signal | signal with controls |
|---|---|---|---|---|---|
| GWTLNSYGIS | VIYSDGKRTFYGDSVK | GRAAWTFDS | 1.20 | 3 of 3 | 1 of 9 |
| GDTLNSYGIS | VIYSDGRRTFYGDSVT | GRAANTFDS | 1.33 | 3 of 3 | 0 of 9 |
| GFTLNSYGIS | VIYSDGYRTFYGDSVK | GRAAEKFDS | 1.39 | 3 of 3 | 0 of 9 |
| GFELNSYGIS | VIYSDGRRTFYGDMVK | GRWAGTFDS | 1.72 | 3 of 3 | 2 of 9 |
| GFTLNWYGIS | VIYSDGRRTFYGDSVK | GRAAGTLDS | 1.73 | 3 of 3 | 0 of 9 |
| GFTLASNGIS | VIYSDGRETFYGDSVK | GRAAGTFDS | 1.85 | 3 of 3 | 0 of 9 |
| GFTLNSYGIS | VIYSDGRRTFYGDSVK | GRAPGAFRS | 1.98 | 3 of 3 | 2 of 9 |
| GFTLNSYGIS | VIYSDGRRTFYWDSTD | GRAAGTFDS | 2.47 | 1 of 3 | 0 of 9 |
| GFTLNSYGIS | VIYSDGRRTFYGDVVK | GCAAGTFDT | 2.53 | 3 of 3 | 1 of 9 |
| GFTLNAYGIS | VIYSDGRRTFYGDSVK | GRAAITFDS | 2.70 | 3 of 3 | 1 of 9 |
| GFTLNSYGGS | VIYSDGQRTFYGDSVK | GRAAGTFDS | 2.77 | 1 of 3 | 0 of 9 |
| GFTLNSEGIS | VIYSDGRRTFYGDSVK | GRAGGKFDS | 2.91 | 3 of 3 | 2 of 9 |
| GFTLNCYGIS | VIYSDGRRTFCGDSVK | GRAAGTFGS | 3.02 | 2 of 3 | 1 of 9 |
| GFYLNSYGIS | VIYFDGRRTFYGDSVK | GRAKGTFDS | 3.12 | 2 of 3 | 0 of 9 |
| GFTLNSYGIM | VIYSDGRRDFYGDSVK | GRAAGTFDS | 3.17 | 1 of 3 | 0 of 9 |
| GFTLNSYGIS | VIYSDGRRTFYGDSVK | NRAPGTFAS | 3.25 | 1 of 3 | 2 of 9 |
| GFKLNWYGIS | VIYLDGRRTFYGDSVK | GRAAGTFDS | 3.56 | 1 of 3 | 2 of 9 |
| GFTLNHYGIS | VIYSDGRRTFHGDSVK | GRAFGTFDS | 3.57 | 2 of 3 | 0 of 9 |
| GFTLNSYGIS | VIYSDGRRAWYGDSVK | GRAAGKFDS | 3.63 | 1 of 3 | 5 of 9 |
| GHTLNSYGIS | VIYSDGRRTFEGDSVK | GRAAGTFDS | 3.69 | 2 of 3 | 1 of 9 |
| GFTLNSYGIS | VIYSDGRRTFWGDSVK | GRAAGQFDH | 3.72 | 1 of 3 | 2 of 9 |
| GFTLNSYGQS | VHYSDGRRTFYADSVK | GRAAGTFDS | 4.01 | 1 of 3 | 0 of 9 |
| GFTLNVSGIS | VIYSDGRITFYGDSVK | GRAAGTFDS | 4.05 | 2 of 3 | 2 of 9 |
| GFTLNSYGIS | VIYSDGRRTFYGDSYK | YRAAGTFDS | 4.23 | 1 of 3 | 1 of 9 |
| GFTVTSYGES | VIYSDGRRTFYGDSVK | GRAAGTFDS | 4.27 | 1 of 3 | 2 of 9 |
| GFTLNSYGIS | VIYSDGRRTFYGDDVK | GRAWGTWDS | 4.33 | 2 of 3 | 3 of 9 |
| GFTLNSYGIS | VIYSDCRRTFYLDSHK | GRAAGTFDS | 4.38 | 2 of 3 | 2 of 9 |
| GFTLNSYGIS | VIYSDGRRTPTGDSVK | GRAAGTFDS | 4.44 | 2 of 3 | 5 of 9 |
| GVTLASYGIS | CIYSDGRRTFYGDSVK | GRAAGTFDS | 4.52 | 2 of 3 | 7 of 9 |
| GWTLNSYGIS | VIVSDGRRTFYGDSVK | LRAAGTFDS | 4.59 | 3 of 3 | 6 of 9 |
| GFTLNSYGIS | VIYSDGRRTFYWDSYK | GRAAFTFDS | 4.86 | 1 of 3 | 0 of 9 |
| GFCLNSYGIS | VIYTDGRRTFYGDSVK | GRAKGTFDS | 4.94 | 2 of 3 | 3 of 9 |
| GFTLNSYGIS | QIYSRGRRTFIGDSVK | GRAAGTFDS | 5.09 | 2 of 3 | 4 of 9 |
| GFELNSYGIS | VCYSDGRRTFYGDSVM | GRAAGTFDS | 5.33 | 1 of 3 | 2 of 9 |
| GFTLNSYFIS | VIYSDGRRTFYGDRVK | GRADGTFDS | 5.43 | 1 of 3 | 1 of 9 |
| GFTLNSYGIV | VIYSDGRRTFYGCSVD | GRAAGTFDS | no signal | 0 of 3 | 0 of 9 |
| GFFLNSYGIS | VIYSDGRRTFYGDSVK | GRAAGAFDM | no signal | 0 of 3 | 3 of 9 |
| GFTFNSYGYS | VIYSDGRRTFYGDSVK | GLAAGTFDS | no signal | 0 of 3 | 0 of 9 |
| GFSLNSYGIW | VIYSDGRRTVYGDSVK | GRAAGTFDS | no signal | 0 of 3 | 0 of 9 |
| GFTGNSYYIS | VIYSDGRRTFYGDSVK | GRADGTFDS | no signal | 0 of 3 | 0 of 9 |
| GFTCNSYGIS | VIYSDGRRTLYQDSVK | GRAAGTFDS | no signal | 0 of 3 | 0 of 9 |
| GHTLNSYGIS | VIYSDGRVTFYGDSVC | GRAAGTFDS | no signal | 0 of 3 | 3 of 9 |
| GFTLNSYGIS | VIYSDGRRTLYGGSVK | DRAAGTFDS | no signal | 0 of 3 | 1 of 9 |
| GFTLNSYGIS | VIRSDGRRTFYGSSVK | GRMAGTFDS | no signal | 0 of 3 | 0 of 9 |
| GITLNSYGIS | VRYSDDRRTFYGDSVK | GRAAGTFDS | no signal | 0 of 3 | 1 of 9 |
| TFTLNRYGIS | VIYSEGRRTFYGDSVK | GRAAGTFDS | no signal | 0 of 3 | 3 of 9 |
| GFTLNSYGIS | VIYSDGRRTFYGDSVK | GRAALNFDS | no signal | 0 of 3 | 2 of 9 |
| GMTLNGYGIS | VIYSDGRRTFYGDSKK | GRAAGTFDS | no signal | 0 of 3 | 0 of 9 |
| GFTLNSYGIS | VIYSDGRRNFYGDSHK | GRAAGTFDS | no signal | 0 of 3 | 2 of 9 |
| GMTLNSYNIS | VIYSTGRRTFYGDSVK | GRAAGTFDS | no signal | 0 of 3 | 2 of 9 |
| GFTLNSYGIS | VIYNDGRMTFYGDSVK | GRAAGTFLS | no signal | 0 of 3 | 1 of 9 |
| GFTLNSYGSS | VIYSDGERTFYGDSVK | GRAAGTFDF | no signal | 0 of 3 | 0 of 9 |
| GFTLCSYGIS | VIYSDGRRTFYGDSVK | GWAAGTFGS | no signal | 0 of 3 | 1 of 9 |
| GFTLNSYGIS | VIYSDPRRTFYGDSVC | GRAAGGFDS | no signal | 0 of 3 | 0 of 9 |
| GFTLNCYGTS | VIYSDGRRTFYEDSVK | GRAAGTFDS | no signal | 0 of 3 | 0 of 9 |
| GAELNSYGIS | VIYSDGRRTFYGDSVK | GRAAGCFDS | no signal | 0 of 3 | 0 of 9 |
| GFDLNSYGIS | VIYSDGRRTFYGDQVK | FRAAGTFDS | no signal | 0 of 3 | 0 of 9 |
| GFTLNCYGIS | AIYSDGRRTFYGDSVK | GRAAGTFDS | no signal | 0 of 3 | 0 of 9 |
| GFTSCSYGIS | VIYSDGRRTFYGFSVK | GRAAGTFDS | no signal | 0 of 3 | 0 of 9 |

6 of these entries, quoted again:

{"CDR-H1": "GFTLNAYGIS", "CDR-H2": "VIYSDGRRTFYGDSVK", "CDR-H3": "GRAAITFDS", "mean, log10 nM": "2.70", "replicates with signal": "3 of 3", "signal with controls": "1 of 9"}
{"CDR-H1": "GFYLNSYGIS", "CDR-H2": "VIYFDGRRTFYGDSVK", "CDR-H3": "GRAKGTFDS", "mean, log10 nM": "3.12", "replicates with signal": "2 of 3", "signal with controls": "0 of 9"}
{"CDR-H1": "GFTLNCYGTS", "CDR-H2": "VIYSDGRRTFYEDSVK", "CDR-H3": "GRAAGTFDS", "mean, log10 nM": "no signal", "replicates with signal": "0 of 3", "signal with controls": "0 of 9"}
{"CDR-H1": "GFELNSYGIS", "CDR-H2": "VCYSDGRRTFYGDSVM", "CDR-H3": "GRAAGTFDS", "mean, log10 nM": "5.33", "replicates with signal": "1 of 3", "signal with controls": "2 of 9"}
{"CDR-H1": "GFTLNSYGIS", "CDR-H2": "VIYSDGRRTLYGGSVK", "CDR-H3": "DRAAGTFDS", "mean, log10 nM": "no signal", "replicates with signal": "0 of 3", "signal with controls": "1 of 9"}
{"CDR-H1": "GFTLNSYGIV", "CDR-H2": "VIYSDGRRTFYGCSVD", "CDR-H3": "GRAAGTFDS", "mean, log10 nM": "no signal", "replicates with signal": "0 of 3", "signal with controls": "0 of 9"}

Empty control strains, which show no peptide, gave a signal in 15% of pairings with library AAYL49; the median was 4.06 and 95% of these signals were weaker than 2.83. No background was subtracted. For each scFv, signals with the empty controls are counted beside the result. For reference, the parent read 0.65 as the reference entry and 4.11 (one replicate of three) as a member of this library.